One data set deals with CHO-K1 cells. The experiment in a line: Cytotoxicity on CHO-K1 cells, eFluor780 fixable viability dye, flow cytometry. Type of data set: cell-based. Particulars: increasing concentrations, 24 hours. How it is done: (§1) Before IAA was used as an expression inducer for the transduced cell lines, it was assessed for any cytotoxic effects on CHO-K1 and HEK293 cells. Cell viability in both HEK293 and CHO-K1 cells was measured by flow cytometry 24 hours post addition of IAA over the concentration range indicated.
(§2) HEK293 and CHO-K1 cells were treated with the indicated concentrations of IAA for 24 hours before being stained with eFluor780 fixable viability dye and analysed by flow cytometry.

For the next data set, the system named is HEK293 cells. The experiment in a line: Cytotoxicity on HEK293 cells, eFluor780 fixable viability dye, flow cytometry. Particulars: increasing concentrations, 24 hours. Type of data set: cell-based. The procedure:
as §1, §2

Data on one substance can be found in patent publication US20250290916A1 (Antibody Analytics Limited, priority 2022, published 2025).

With S-(+)-abscisic acid [ABA], the “cell viability (percentage of cells which do not take up the dye)” value in the data set with CHO-K1 cells and with HEK293 cells was “No decrease in cell viability was observed” in each case.
